Consider eight compounds from ChEMBL document CHEMBL1139297, “Synthesis and stereochemical effects of pyrrolidinyl-acetylenic thieno[3,2-d]pyrimidines as EGFR and ErbB-2 inhibitors” (Bioorg Med Chem Lett, 2009).

Amino acid sequences for entries named in this document (tags omitted).
UniProt P00533, whole entry: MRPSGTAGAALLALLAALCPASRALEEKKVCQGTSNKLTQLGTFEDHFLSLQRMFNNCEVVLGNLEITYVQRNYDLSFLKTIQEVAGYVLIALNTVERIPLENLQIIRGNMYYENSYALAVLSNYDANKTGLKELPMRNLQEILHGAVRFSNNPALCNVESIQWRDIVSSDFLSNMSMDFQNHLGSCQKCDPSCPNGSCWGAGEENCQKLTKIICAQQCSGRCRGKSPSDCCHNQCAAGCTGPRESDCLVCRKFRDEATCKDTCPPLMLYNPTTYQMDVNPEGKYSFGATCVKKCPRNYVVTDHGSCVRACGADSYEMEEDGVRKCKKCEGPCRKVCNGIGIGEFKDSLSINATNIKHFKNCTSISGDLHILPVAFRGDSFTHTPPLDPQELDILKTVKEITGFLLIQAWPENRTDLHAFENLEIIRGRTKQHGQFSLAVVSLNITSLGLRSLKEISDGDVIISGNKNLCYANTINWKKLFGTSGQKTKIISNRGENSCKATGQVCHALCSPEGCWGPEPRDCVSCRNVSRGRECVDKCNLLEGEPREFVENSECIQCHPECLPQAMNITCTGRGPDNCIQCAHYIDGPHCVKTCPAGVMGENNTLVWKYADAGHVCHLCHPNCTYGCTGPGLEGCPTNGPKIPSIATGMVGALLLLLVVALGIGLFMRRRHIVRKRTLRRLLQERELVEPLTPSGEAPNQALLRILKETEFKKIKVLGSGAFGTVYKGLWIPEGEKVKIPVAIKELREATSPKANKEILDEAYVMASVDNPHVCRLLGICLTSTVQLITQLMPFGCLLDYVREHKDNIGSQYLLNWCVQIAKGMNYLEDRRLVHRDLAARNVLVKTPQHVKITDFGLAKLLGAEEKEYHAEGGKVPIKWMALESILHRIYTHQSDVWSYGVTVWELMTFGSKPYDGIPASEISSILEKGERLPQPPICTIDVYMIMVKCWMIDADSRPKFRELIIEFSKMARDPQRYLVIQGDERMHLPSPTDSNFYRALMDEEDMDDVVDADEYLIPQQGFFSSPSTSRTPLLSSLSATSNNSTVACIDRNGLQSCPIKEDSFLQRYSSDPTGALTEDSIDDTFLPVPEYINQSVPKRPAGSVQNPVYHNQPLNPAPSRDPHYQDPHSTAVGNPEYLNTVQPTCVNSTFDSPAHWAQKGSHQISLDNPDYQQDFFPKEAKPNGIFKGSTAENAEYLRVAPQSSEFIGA
UniProt P04626, whole entry: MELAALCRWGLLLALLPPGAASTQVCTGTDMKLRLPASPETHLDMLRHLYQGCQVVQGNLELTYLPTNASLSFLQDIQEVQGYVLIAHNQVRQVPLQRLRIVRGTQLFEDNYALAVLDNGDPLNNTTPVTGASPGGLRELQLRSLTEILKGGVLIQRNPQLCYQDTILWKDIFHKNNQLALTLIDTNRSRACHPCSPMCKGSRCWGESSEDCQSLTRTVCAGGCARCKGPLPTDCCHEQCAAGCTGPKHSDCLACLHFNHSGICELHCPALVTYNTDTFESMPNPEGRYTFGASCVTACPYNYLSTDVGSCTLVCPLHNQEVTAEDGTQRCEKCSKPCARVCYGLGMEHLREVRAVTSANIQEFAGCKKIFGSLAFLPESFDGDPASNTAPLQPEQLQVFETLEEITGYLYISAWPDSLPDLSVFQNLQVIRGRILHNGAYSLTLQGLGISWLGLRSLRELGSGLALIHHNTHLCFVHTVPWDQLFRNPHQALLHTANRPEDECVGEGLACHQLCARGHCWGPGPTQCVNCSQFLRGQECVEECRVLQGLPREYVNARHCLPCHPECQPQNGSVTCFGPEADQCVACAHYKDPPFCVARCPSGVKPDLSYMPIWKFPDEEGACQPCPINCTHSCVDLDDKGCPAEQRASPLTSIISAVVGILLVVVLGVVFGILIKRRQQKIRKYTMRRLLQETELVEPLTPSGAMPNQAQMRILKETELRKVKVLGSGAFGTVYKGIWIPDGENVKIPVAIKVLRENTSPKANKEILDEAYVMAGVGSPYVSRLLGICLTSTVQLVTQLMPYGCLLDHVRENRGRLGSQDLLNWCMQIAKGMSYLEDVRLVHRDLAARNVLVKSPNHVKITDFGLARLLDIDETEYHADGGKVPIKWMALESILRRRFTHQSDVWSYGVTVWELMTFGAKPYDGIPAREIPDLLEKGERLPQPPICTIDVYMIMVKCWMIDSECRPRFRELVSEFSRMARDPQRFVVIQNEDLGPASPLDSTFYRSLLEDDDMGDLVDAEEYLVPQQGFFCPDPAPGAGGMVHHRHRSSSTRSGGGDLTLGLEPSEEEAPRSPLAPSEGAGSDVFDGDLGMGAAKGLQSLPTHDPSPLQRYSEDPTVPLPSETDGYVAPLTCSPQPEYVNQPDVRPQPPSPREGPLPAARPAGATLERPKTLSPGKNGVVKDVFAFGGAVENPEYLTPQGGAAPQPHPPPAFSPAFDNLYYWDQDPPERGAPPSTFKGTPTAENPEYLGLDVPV

The target of experiment [1] is Epidermal growth factor receptor (Homo sapiens, UniProt P00533).
The test system of another experiment is HN5. The experiment in a line: cells. The following applies: Homo sapiens, HN5, 72 h.
For experiment [2], the target named is T1, Receptor tyrosine-protein kinase erbB-2 (Homo sapiens, UniProt P04626). Nature of the experiment: Inhibition of ERBb2 by DELFIA assay.
Experiment [3] addresses T1, Receptor tyrosine-protein kinase erbB-2.

In experiment [1], `O=C(O[C@H]1CN[C@@H](C#Cc2cc3ncnc(Nc4ccc(OCc5cccc(F)c5)c(Cl)c4)c3s2)C1)N1CCOCC1` came in with an IC50 of 50 nM. Turning to `O=C(O[C@H]1CN[C@H](C#Cc2cc3ncnc(Nc4ccc(OCc5cccc(F)c5)c(Cl)c4)c3s2)C1)N1CCOCC1` [GW869810X], in the experiment on HN5, the EC50 was found to be 160 nM. In experiment [1], `O=C(O[C@@H]1CN[C@@H](C#Cc2cc3ncnc(Nc4ccc(OCc5cccc(F)c5)c(Cl)c4)c3s2)C1)N1CCOCC1` returned an IC50 of 40 nM. With `CCNC(=O)O[C@H]1CN[C@H](C#Cc2cc3ncnc(Nc4ccc(OCc5cccc(F)c5)c(Cl)c4)c3s2)C1` [GSK-192082A], the 50% inhibitory concentration (IC50) in experiment [2] was 10 nM. This lies in the double-digit nanomolar range. With `CCNC(=O)O[C@@H]1CN[C@H](C#Cc2cc3ncnc(Nc4ccc(OCc5cccc(F)c5)c(Cl)c4)c3s2)C1`, the IC50 in experiment [3] came out at 63 nM. This compound also registered an EC50 in experiment [2] of 130 nM. The matching figures for `CCNC(=O)O[C@H]1CN[C@@H](C#Cc2cc3ncnc(Nc4ccc(OCc5cccc(F)c5)c(Cl)c4)c3s2)C1`: 20 nM and 10 nM. For `CCNC(=O)O[C@@H]1CN[C@@H](C#Cc2cc3ncnc(Nc4ccc(OCc5cccc(F)c5)c(Cl)c4)c3s2)C1`, it took 50 nM to reach a half-maximal effect in experiment [2] (EC50). This lies in the double-digit nanomolar range. In experiment [1], `O=C(O[C@@H]1CN[C@H](C#Cc2cc3ncnc(Nc4ccc(OCc5cccc(F)c5)c(Cl)c4)c3s2)C1)N1CCOCC1` registered an IC50 of 79 nM.

In general, IC50 refers to the concentration that gives 50% inhibition. Lower therefore signals greater potency. As usually defined, the EC50 is the concentration giving half of the maximal effect. Read a low EC50 as greater potency.
